These results are taken from PubChem BioAssay AID488847 (NMMLSC, 2010).

Chains of the proteins cited; added tags and fusions are not shown.
UniProt P25098, whole entry: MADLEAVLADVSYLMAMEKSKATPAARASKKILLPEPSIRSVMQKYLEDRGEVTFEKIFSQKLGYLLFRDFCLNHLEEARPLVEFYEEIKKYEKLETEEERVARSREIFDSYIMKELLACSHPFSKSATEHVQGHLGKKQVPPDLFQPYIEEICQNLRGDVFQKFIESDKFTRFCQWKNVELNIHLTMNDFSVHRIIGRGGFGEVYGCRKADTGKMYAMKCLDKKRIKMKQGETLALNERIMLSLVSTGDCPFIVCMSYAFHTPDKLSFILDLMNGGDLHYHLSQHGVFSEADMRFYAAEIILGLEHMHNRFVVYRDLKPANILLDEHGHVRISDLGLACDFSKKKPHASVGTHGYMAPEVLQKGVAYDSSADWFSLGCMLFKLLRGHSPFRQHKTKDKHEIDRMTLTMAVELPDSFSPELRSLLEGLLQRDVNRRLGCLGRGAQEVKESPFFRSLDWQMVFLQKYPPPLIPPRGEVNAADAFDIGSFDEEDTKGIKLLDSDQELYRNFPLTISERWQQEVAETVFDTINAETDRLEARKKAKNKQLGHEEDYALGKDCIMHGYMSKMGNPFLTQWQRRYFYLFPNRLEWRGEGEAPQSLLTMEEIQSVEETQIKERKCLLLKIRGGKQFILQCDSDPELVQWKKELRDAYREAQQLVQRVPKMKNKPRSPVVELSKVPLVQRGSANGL

Only a part is listed here, and it is no random draw. Some structures show a salt or complex split into parts, the way the source records it. Calls of active or inactive are those of the source.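 How the source made its calls: active means inhibition of aptamer binding above 40%, roughly 3 SD of noise, on plates passing a quality check; inactive means the rest.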

In this test the target is Beta-adrenergic receptor kinase 1 (Homo sapiens) (UniProt P25098). The test is described as follows: compounds blocking aptamer binding on GRK2 – biochemical, human GRK2, bead flow cytometry, HTS, primary screen (AID 488847).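 On inhibition of aptamer binding: median bead fluorescence of bound FAM aptamer so fluorescent compounds give negative values.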 As to conditions: FAM-aptamer displacement from GRK2, at 10 µM; hits give high values.
As for `CC(C)(C)c1ccc(OP(C)(=O)Nc2ccc(SC(F)(F)F)cc2)cc1` (stereo not drawn), the inhibition of aptamer binding is inactive: 0%.
Regarding `Cc1cccc(C)c1OP(C)(N)=O` (stereo not drawn), the inhibition of aptamer binding was inactive: 0%.
The figure for `O=[N+]([O-])c1ccc2c(c1)C=Nc1ccccc1O2` is inactive: 2%; for `Cc1ccc2nc3c(c(C)c2c1)CC(C(Cl)Cl)S3` (stereo not drawn) it is “inactive”.
The same measure for `CCOC(=O)c1ccc(NP(C)(=O)Oc2ccccc2)cc1` (stereo not drawn): inactive: 0%; for `ClCCSc1nnc(-c2cccnc2)o1`: “inactive”.
The figure for `COc1ccccc1OP(C)(=O)Nc1ccc(C)cc1` (stereo not drawn) is inactive: 0%; for `CC(C)c1ccc(OP(=O)(Nc2ccccn2)Oc2ccccc2F)cc1` (stereo not drawn) it is “inactive”; for `Cc1ccc(NP(C)(=O)Oc2ccccc2)c(C)c1` (stereo not drawn) it is inactive: 3%.
As to `COc1ccccc1OP(C)(=O)Nc1cc(Cl)ccc1C` (stereo not drawn), the inhibition of aptamer binding was inactive: 2%.
The same measure for `CCN(CC)C(=S)SC(NC=O)C(Cl)(Cl)Cl` (stereo not drawn): “inactive”; for `COc1ccc(OP(C)(=O)Nc2cccc(F)c2)cc1` (stereo not drawn): inactive: 5%; for `Cc1cc(C)cc(OP(C)(N)=O)c1` (stereo not drawn): inactive: 0%.
The figure for `CCN(CC)CCCOC(=O)C(O)(c1ccccc1)c1ccccc1` is inactive: 0%.
On to `Cc1cc(=O)[nH]c(N[N+](=O)[O-])n1`, for which the inhibition of aptamer binding entry is “inactive”.
With `COc1cc(I)ccc1[As](=O)(O)O`, the inhibition of aptamer binding result is “inactive”.
The same measure for `COc1ccc(N/C(=N/P(=O)(N2CCOCC2)N2CCOCC2)N2CCOCC2)cc1`: “inactive”; for `CN(C(=O)Cc1ccc(Cl)c(Cl)c1)[C@H]1CCCC[C@H]1N1CCCC1`: “inactive”; for `COc1ccccc1OP(C)(=O)Nc1ccc(Br)cc1` (stereo not drawn): inactive: 1%.
The same measure for `Cc1ccc(N/C(=N/P(=O)(N2CCOCC2)N2CCOCC2)N2CCOCC2)cc1`: “inactive”.
In the case of `CN1CCCC(OC(=O)C(c2ccccc2)c2ccccc2)C1` (stereo not drawn), the inhibition of aptamer binding entry was “inactive”.
Consider `CN(C)CCOC(=O)C(O)(c1ccccc1)C1CCCC1` (stereo not drawn), for which the inhibition of aptamer binding entry was “inactive”.
`Clc1ccc(Cl)c(NC2=NCC(CBr)S2)c1` (stereo not drawn): the inhibition of aptamer binding entry was “inactive”.
The figure for `COc1ccc(OP(C)(=O)Nc2ccccn2)cc1` (stereo not drawn) is inactive: 0%; for `O=C(NC(Sc1ccncn1)C(Cl)(Cl)Cl)c1ccccc1` (stereo not drawn) it is “inactive”.
The same measure for `Cc1c2non([O-])c-2c(C)[n+](=O)[n+]1[O-]`: “inactive”.
The entry for `Nc1cc(N)c2nonc2c1[N+](=O)[O-]` is “inactive”.
For the molecule `Cc1c(NP(C)(=O)Oc2ccc(C(C)C)cc2)c(=O)n(-c2ccccc2)n1C` (stereo not drawn), the inhibition of aptamer binding was inactive: 1%.
The figure for `O=[N+]([O-])c1cc([N+](=O)[O-])c(Nc2ccccn2)c([N+](=O)[O-])c1` is inactive: 0%; for `CC(C)CC(=O)NC(Sc1ccc(Cl)cc1)C(Cl)(Cl)Cl` (stereo not drawn) it is “inactive”; for `CCc1ccc(OP(C)(=O)O)cc1` it is inactive: 2%.
The same measure for `CP(=O)(Nc1ccccn1)Oc1ccccc1` (stereo not drawn): inactive: 0%.
The same measure for `COc1ccccc1OP(C)(=O)Nc1ccc(C)cc1C` (stereo not drawn): inactive: 0%; for `O=P(Nc1nc2ccc(Cl)cc2s1)(c1ccccc1)c1ccccc1`: “inactive”; for `Cc1cc(C)cc(OP(C)(=O)Nc2cccc(C(F)(F)F)c2)c1` (stereo not drawn): inactive: 3%.
On to `COc1ccc(OP(C)(=O)Nc2ccccc2Br)cc1` (stereo not drawn), for which the inhibition of aptamer binding is inactive: 2%.
The entry for `CCOP(=O)(Nc1ccccc1)OCC` is “inactive”.
Consider `COc1ccccc1OP(C)(=O)Nc1ccc(C)c(C)c1` (stereo not drawn), for which the inhibition of aptamer binding was inactive: 0%.
As to `CN(C(=O)Cc1ccc(Cl)c(Cl)c1)[C@H]1CCCC[C@@H]1N1CCCC1`, the inhibition of aptamer binding result is “inactive”.
Take `Cc1nc2ccc3ccccc3c2o1.O=[N+]([O-])c1cc([N+](=O)[O-])c(O)c([N+](=O)[O-])c1`: the inhibition of aptamer binding was inactive: 2%.
Turning to `CP(=O)(Nc1ccc(Cl)cc1Cl)Oc1ccccc1` (stereo not drawn), the inhibition of aptamer binding is inactive: 0%.
For `CP(=O)(OCCOc1ccccc1)OCCOc1ccccc1`, the inhibition of aptamer binding is inactive: 1%.
For `CCN(N=Nc1nonc1N)c1nonc1N`, the inhibition of aptamer binding entry was “inactive”.
Consider `Nc1ccc2c(ccc3cccnc32)n1.O=[N+]([O-])c1cc([N+](=O)[O-])c(O)c([N+](=O)[O-])c1`, for which the inhibition of aptamer binding was inactive: 1%.
`CP(=O)(OC12CC3CC(CC(C3)C1)C2)OC12CC3CC(CC(C3)C1)C2`: the inhibition of aptamer binding is inactive: 0%.
In the case of `CCOC(=O)c1ccc(NP(C)(=O)Oc2ccc(Cl)cc2)cc1` (stereo not drawn), the inhibition of aptamer binding was inactive: 2%.
The entry for `O=C(Nc1cc([As](=O)(O)O)ccc1O)c1ccccc1` is “inactive”.
As to `CC(C)(C)C(=O)NC(Sc1ccncn1)C(Cl)(Cl)Cl` (stereo not drawn), the inhibition of aptamer binding result is “inactive”.
The same measure for `CCN(CC)CC(O)COC(=O)C(O)(c1ccccc1)C1CCCCC1` (stereo not drawn): inactive: 2%; for `COc1ccc(OP(C)(=O)Nc2ccc(Br)cc2)cc1` (stereo not drawn): inactive: 0%.
The figure for `CP(=O)(Oc1ccccc1)N1CCOC1=O` (stereo not drawn) is inactive: 2%.
The same measure for `CCc1ccc(OP(C)(=O)Nc2cccnc2)cc1` (stereo not drawn): inactive: 0%.
Regarding `CCc1nc2c(n1)c1c(non1O)c1c2no[n+]1[O-]`, the inhibition of aptamer binding result was “inactive”.
Take `CC(=O)N1C2C3N(C(C)=O)C1C1N(C(C)=O)C(C(N1C(C)=O)N3C(C)=O)N2C(C)=O`: the inhibition of aptamer binding entry is “inactive”.
The same measure for `COc1ccccc1OP(C)(=O)Nc1c(C)n(C)n(-c2ccccc2)c1=O` (stereo not drawn): inactive: 0%; for `O=C(OCCCN1CCCC1)C(O)(c1ccccc1)C1CCCCC1` (stereo not drawn): inactive: 0%; for `CCN(/C(=N/P(=O)(N1CCOCC1)N1CCOCC1)N1CCOCC1)c1ccc(OC)cc1`: “inactive”.
The same measure for `CP(=O)(Nc1ccc(Cl)cc1)Oc1ccc(F)cc1` (stereo not drawn): inactive: 0%; for `COc1ccccc1OP(C)(=O)Nc1ccccc1Br` (stereo not drawn): inactive: 3%.
On to `CC(C)(C)c1ccc(OP(C)(=O)O)cc1`, for which the inhibition of aptamer binding is inactive: 1%.
The entry for `CC1CCN(C(=O)Oc2c(Cl)cc(Cl)c3cccnc23)CC1` is “inactive”; for `CN(C)C(=O)c1c([N+](=O)[O-])cc([N+](=O)[O-])cc1[N+](=O)[O-]` it is inactive: 1%; for `CN(C)C(=O)OCCc1n(C)cc[n+]1C` it is “inactive”.
The same measure for `CC(C)C(=O)NC(Sc1ccccc1)C(Cl)(Cl)Cl` (stereo not drawn): “inactive”; for `CP(=O)(Nc1ccc(SC(F)(F)F)cc1)Oc1ccc(F)cc1` (stereo not drawn): inactive: 0%.
The same measure for `CCOP(C)(=S)SCC(=O)NC(C)(CC)C(=O)O` (stereo not drawn): inactive: 0%; for `CP(=O)(Nc1ccc2c(c1)OCCO2)Oc1ccccc1` (stereo not drawn): inactive: 0%.
`Cc1ccccc1NP(C)(=O)Nc1ccccc1C`: the inhibition of aptamer binding was inactive: 1%.
The figure for `COc1ccc(OP(C)(=O)Nc2cccc(Br)c2)cc1` (stereo not drawn) is inactive: 0%; for `COc1ccc(NP(C)(=O)Oc2ccccc2OC)cc1` (stereo not drawn) it is inactive: 3%; for `O=P(Nc1nc2ccccc2s1)(c1ccccc1)c1ccccc1` it is “inactive”.
As to `CN(C)CCOC(=O)C(O)(c1ccccc1)C1CCCCC1` (stereo not drawn), the inhibition of aptamer binding is inactive: 1%.
The same measure for `C[C@H]1OP(=O)(Oc2ccccc2)[C@H](O)[C@H](O)[C@H]1N=[N+]=[N-]` (stereo partly drawn): “inactive”; for `O=[N+]([O-])c1cc([N+](=O)[O-])c(NCC2CCS(=O)(=O)C2)c([N+](=O)[O-])c1` (stereo not drawn): inactive: 0%.
With `O=[N+]([O-])c1ccc(OP2(=O)COCCO2)cc1` (stereo not drawn), the inhibition of aptamer binding is inactive: 0%.
The entry for `CC(=O)NC(SC(=S)N(C)C)C(Cl)(Cl)Cl` (stereo not drawn) is “inactive”; for `O=C(OC1CN2CCC1CC2)c1cccc(Cl)c1` (stereo not drawn) it is “inactive”.
The same measure for `Nc1ccc([As](=O)(O)c2ccc([N+](=O)[O-])cc2)cc1`: “inactive”.
The same measure for `O=C(NC1CCS(=O)(=O)C1)NP(=S)(Oc1ccccc1)Oc1ccccc1` (stereo not drawn): “inactive”; for `COc1ccc(OP(C)(=O)Nc2ccc(SC(F)(F)F)cc2)cc1` (stereo not drawn): inactive: 0%.
Regarding `CCOC(=O)c1ccc(NP(C)(=O)Oc2ccc(F)cc2)cc1` (stereo not drawn), the inhibition of aptamer binding was inactive: 9%.
The entry for `CCC(=O)N1C2C3N(C(=O)CC)C1C1N(C(=O)CC)C(C(N1C(=O)CC)N3C(=O)CC)N2C(=O)CC` is “inactive”; for `CCN(CC)CCCOC(=O)C(O)(c1ccccc1)C1CCCCC1` (stereo not drawn) it is “inactive”; for `COC(=O)c1cc2c(s1)N=C(c1ccccc1)N(C)P2(=O)N1CCOCC1` (stereo not drawn) it is “inactive”.
The entry for `CC(=O)NC(SC(=S)N(CC(C)C)CC(C)C)C(Cl)(Cl)Cl` (stereo not drawn) is “inactive”; for `CC(NC(=O)COC(=O)C(O)(c1ccccc1)c1ccccc1)c1ccccc1` (stereo not drawn) it is “inactive”; for `O=[N+]([O-])c1cc([N+](=O)[O-])c(OC2CCCCC2O)c([N+](=O)[O-])c1` (stereo not drawn) it is inactive: 3%.
Consider `CCCCCOc1ccc(NP(C)(=O)Oc2ccc(Cl)cc2Cl)cc1` (stereo not drawn), for which the inhibition of aptamer binding was inactive: 2%.
The same measure for `CP(=O)(Nc1ccccc1)Oc1ccc(F)cc1` (stereo not drawn): inactive: 0%; for `CCOc1ccc(C2=NCC(CBr)S2)cc1` (stereo not drawn): “inactive”; for `CC(C)(C)C(=O)NC(Sc1ccccc1)C(Cl)(Cl)Cl` (stereo not drawn): “inactive”.
The figure for `CC(C)c1ccc(OP(C)(=O)Nc2ccc(SC(F)(F)F)cc2)cc1` (stereo not drawn) is inactive: 0%; for `CP(=O)(Nc1ccccc1F)Oc1ccccc1` (stereo not drawn) it is inactive: 0%.
The figure for `O=C(OCCN1CCN(CCOCc2ccccc2)CC1)C(O)(c1ccccc1)c1ccccc1` is inactive: 0%.
Turning to `Cc1ccccc1CN(C)C(=O)COC(=O)C(O)(c1ccccc1)c1ccccc1`, the inhibition of aptamer binding result was “inactive”.
As to `C[C@H]1OP(=O)(Oc2ccccc2)C[C@@H]2O[C@@H]21` (stereo partly drawn), the inhibition of aptamer binding result is “inactive”.
For the molecule `O=C(OC1CN2CCC1CC2)c1ccc([N+](=O)[O-])cc1` (stereo not drawn), the inhibition of aptamer binding is inactive: 3%.
The same measure for `COc1ccc2c(c1O)-c1c(O)c(OC)cc3c1[C@H](C2)[N+](C)(C)CC3.O=[N+]([O-])c1cc([N+](=O)[O-])c([O-])c([N+](=O)[O-])c1[O-]`: inactive: 4%.
